Assay results taken from paper PMC4722750.

Tested on: P05067
Assay: SEC + native gel or EMSA; peptide (5 μM) in medium taken from human cerebral VSMC cultures after 30 min at 37 °C; Superdex 200 10/300, 1 mL/min, FPLC; Aβ fractions found by ELISA, then SDS- and native-PAGE with Western blot (82E1)

| Substance | percent in higher order, SDS soluble aggregates |
| --- | --- |
| Aβ_(1-40) | <10% |
| Aβ_(1-42) | < 15-20% |
